## AlphaSeq binding of Ab-91 heavy chain variants to a spike HR2 peptide

Target peptide (SARS-CoV-2 spike, HR2 region): PDVDLGDISGINAS

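AAYL51 was designed without a model: most single CDR substitutions and a random sample of double and triple ones. The assay is AlphaSeq: two haploid yeast populations carry antibody and antigen on their surface. Pairs that bind mate more often; barcode pairs of the diploids are counted by sequencing. Read counts were normalised to the haploid input and turned into Kd by a linear fit to BCL2-family pairs of known affinity, for each replicate. Each pool was mated in three replicate cultures.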

Parent: Ab-91, a human scFv built as VL, the linker GGGGSGGGGSGGGGS, VH. Only the CDRs of the heavy chain vary.
VL: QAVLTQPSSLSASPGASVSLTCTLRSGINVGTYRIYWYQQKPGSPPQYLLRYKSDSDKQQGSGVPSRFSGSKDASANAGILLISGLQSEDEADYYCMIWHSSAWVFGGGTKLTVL
VH: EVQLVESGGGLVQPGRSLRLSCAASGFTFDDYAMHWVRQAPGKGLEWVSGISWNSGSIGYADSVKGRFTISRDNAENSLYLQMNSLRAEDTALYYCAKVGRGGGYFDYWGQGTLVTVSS

Each variant's VH is given in full. Numbers give log10(Kd / nM), so 0 is 1 nM and 3 is 1 µM. Smaller is tighter. A mean of the replicates is given; it leaves out those without a signal. An entry "no signal" has no value in the source: the pair was not observed among the diploids in any replicate. This suggests poor binding but is not conclusive. Three control strains display no target. For library AAYL51, 21% of the pairings with them gave a signal, with a median of 4.54 and one signal in twenty below 3.26, so weak values seen in few replicates may be background.

mean log10 Kd (nM),seen in,VH
3.75,1/3,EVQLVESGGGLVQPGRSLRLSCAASGFTFDDYAMHWVRQAPGKGLEWVSGISWSSGSIGYADSVKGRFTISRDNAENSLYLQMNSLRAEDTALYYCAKVQRGGGYFDYWGQGTLVTVSS
no signal,0/3,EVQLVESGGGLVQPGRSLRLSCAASGFTFDDYAMHWVRQAPGKGLEWVSQISWNRGSIGFADSVKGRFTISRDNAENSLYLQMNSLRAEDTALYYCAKVGRGGGYFDYWGQGTLVTVSS
no signal,0/3,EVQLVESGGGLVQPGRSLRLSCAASHFTFDDYAMHWVRQAPGKGLEWVSTISWNSGSIGYADSVKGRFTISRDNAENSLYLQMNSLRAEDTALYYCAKVNRGGGYFDYWGQGTLVTVSS
no signal,0/3,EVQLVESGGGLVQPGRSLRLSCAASGFTFDDYAMHWVRQAPGKGLEWVSGISWNSGSIGYADSVKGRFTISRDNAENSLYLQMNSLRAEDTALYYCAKVGHGGGYFYRWGQGTLVTVSS
no signal,0/3,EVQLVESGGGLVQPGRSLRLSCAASGFTFDKYAMHWVRQAPGKGLEWVSGISWVSPSIGYADSVKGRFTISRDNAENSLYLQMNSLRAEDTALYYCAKVGRGGGYFDYWGQGTLVTVSS
4.73,2/3,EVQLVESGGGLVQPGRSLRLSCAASGFTFDDYAMDWVRQAPGKGLEWVSGSSWNSGSIGYADSVKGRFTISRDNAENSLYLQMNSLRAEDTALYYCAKVGRGGGYFDYWGQGTLVTVSS
5.09,1/3,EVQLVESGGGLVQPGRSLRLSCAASGFLFDDIAMHWVRQAPGKGLEWVSGISWNSGSIGYADSVKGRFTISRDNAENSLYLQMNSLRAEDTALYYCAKAGRGGGYFDYWGQGTLVTVSS
no signal,0/3,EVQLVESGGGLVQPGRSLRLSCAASGFTFDDYAMHWVRQAPGKGLEWVSGISWNSGSIMYADSVKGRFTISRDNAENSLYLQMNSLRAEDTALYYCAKRGRGGSYFDYWGQGTLVTVSS
3.93,1/3,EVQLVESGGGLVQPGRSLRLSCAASGFTFDDYAMHWVRQAPGKGLEWVSGISWNSGSIGYAYSVKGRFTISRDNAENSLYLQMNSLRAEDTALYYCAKVGRPDGYFDYWGQGTLVTVSS
5.37,1/3,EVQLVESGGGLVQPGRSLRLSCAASGFVFDDYAMTWVRQAPGKGLEWVSGISWNSGSIGYADSVKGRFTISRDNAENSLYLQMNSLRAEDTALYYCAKAGRGGGYFDYWGQGTLVTVSS
no signal,0/3,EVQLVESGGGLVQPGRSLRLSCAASQFTFDDYAMHWVRQAPGKGLEWVSGVSWNSGSIGYADSVDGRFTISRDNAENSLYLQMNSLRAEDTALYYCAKVGRGGGYFDYWGQGTLVTVSS
4.23,1/3,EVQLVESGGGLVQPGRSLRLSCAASGFTFDDYAMHWVRQAPGKGLEWVSGISWNSGSIGYADSVKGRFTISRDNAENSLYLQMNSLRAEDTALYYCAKVGRGGNSFCYWGQGTLVTVSS
5.34,1/3,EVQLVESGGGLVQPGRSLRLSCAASGFTFDDCAMHWVRQAPGKGLEWVSGISWNVGSIGYADSVKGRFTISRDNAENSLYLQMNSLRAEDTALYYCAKVGNGGGYFDYWGQGTLVTVSS
no signal,0/3,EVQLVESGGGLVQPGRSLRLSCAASGPTFDDYAMHWVRQAPGKGLEWVSGISWNSGSIGVADSVKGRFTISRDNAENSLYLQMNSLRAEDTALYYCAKVGRGGWYFDYWGQGTLVTVSS
4.81,3/3,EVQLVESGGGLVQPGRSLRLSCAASGFTFDDYAMHWVRQAPGKGLEWVSGISWNSGSIGYADSVKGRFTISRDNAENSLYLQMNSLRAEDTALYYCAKLGRGGGYFHYWGQGTLVTVSS
4.46,2/3,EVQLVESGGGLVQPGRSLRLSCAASGFTFDDYFMHWVRQAPGKGLEWVSGISWNSGSIGYADSVKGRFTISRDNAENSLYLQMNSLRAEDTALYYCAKVMRGGGYFDYWGQGTLVTVSS
5.07,1/3,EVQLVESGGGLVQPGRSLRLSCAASGFTFDDYAMHWVRQAPGKGLEWVSGISWNSGKIGYADSVGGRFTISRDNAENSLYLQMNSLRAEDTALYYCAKVQRGGGYFDYWGQGTLVTVSS
no signal,0/3,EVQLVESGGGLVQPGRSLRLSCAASGFTFDKYAMHWVRQAPGKGLEWVSGIQWNSGSIEYADSVKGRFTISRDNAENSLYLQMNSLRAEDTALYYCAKVGRGGGYFDYWGQGTLVTVSS
4.49,1/3,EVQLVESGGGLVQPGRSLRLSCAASGFTFDDYAMHWVRQAPGKGLEWVSGISWNSGSIMYADSVKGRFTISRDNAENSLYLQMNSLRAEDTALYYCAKVGMGGGYFWYWGQGTLVTVSS
1.21,3/3,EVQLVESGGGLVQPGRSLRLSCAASDFYRDDYAMHWVRQAPGKGLEWVSGISWNSGSIGYADSVKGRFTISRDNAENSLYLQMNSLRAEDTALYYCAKVGRGGGYFDYWGQGTLVTVSS
4.28,1/3,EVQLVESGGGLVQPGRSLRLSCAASGNTFDDYALHWVRQAPGKGLEWVSGISWNSGSIGYADSVKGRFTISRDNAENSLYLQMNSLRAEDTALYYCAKVGRGGAYFDYWGQGTLVTVSS
no signal,0/3,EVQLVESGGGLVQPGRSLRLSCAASGFTSDDYAMHWVRQAPGKGLEWVSGISWNSASIGYADSVKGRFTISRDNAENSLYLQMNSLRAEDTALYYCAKVGRGGGYFDYWGQGTLVTVSS
no signal,0/3,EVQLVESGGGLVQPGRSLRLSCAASGFTFDMYAMHWVRQAPGKGLEWVSGISWNSGSIGYDDSVKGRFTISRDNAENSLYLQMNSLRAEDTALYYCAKVGRGGGYFHYWGQGTLVTVSS

For reference, 2 entries of the list once more:

VH,mean log10 Kd (nM),seen in
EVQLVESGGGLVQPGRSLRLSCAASGFTFDDYAMHWVRQAPGKGLEWVSGISWNSGSIMYADSVKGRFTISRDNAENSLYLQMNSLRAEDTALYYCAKVGMGGGYFWYWGQGTLVTVSS,4.49,1/3
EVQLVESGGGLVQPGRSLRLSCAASGFTFDDYAMHWVRQAPGKGLEWVSGISWNSGSIMYADSVKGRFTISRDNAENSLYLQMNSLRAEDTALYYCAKRGRGGSYFDYWGQGTLVTVSS,no signal,0/3

Data: MIT Lincoln Laboratory AlphaSeq set, Engelhart et al. 2022, doi:10.1038/s41597-022-01779-4, as distributed in FLAb.